Here are results for 1 compound from patent publication US8277777B2, “Compound having affinity for amyloid” (Nihon Medi-Physics Co., Ltd., priority 2006, dated 2012).

Protein sequences, listed by entry. Tags and fused reporters are not part of them. Residues count along the entry.
UniProt P05067, 672-711 limits assumed: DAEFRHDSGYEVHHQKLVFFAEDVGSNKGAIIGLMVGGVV

This assay deals with T1, amyloid (aggregated Aβ1-40) (Homo sapiens, UniProt P05067).
T1 construct: purchased Peptide Institute, INC
Nature of the assay: in vitro amyloid binding test (inhibition of [125I]3′-I-BTA-0 binding). The settings on record: [125I]3′-I-BTA-0 400 pmol/L, amyloid 1 μmol/L, 0.1% BSA phosphate buffer pH 7.4, 22°C, 3 hours. As to the method: The resulting samples were placed in each well (about 0.3 mL in volume) of a 96-well microplate.
The measured radioactivity level was defined as the background radioactivity level, and used in the calculation of the inhibition ratio (hereinafter referred to as BG).
(9) Using the radioactivity levels measured above in (7) and (8), the inhibition ratio was determined by the following formula (1).
A graph in which values converted by probit transformation from the obtained inhibition ratios were plotted relative to logarithms of concentrations of compounds for evaluation was prepared to obtain an approximate straight line by the least square method. Using the line, the concentration of each compound for evaluation was determined, at which the radioactivity level is half of the level of the sample free from each compound for evaluation, and was defined as a 50% inhibition concentration of each compound (hereinafter referred to as IC50% value).

pIC50: −log10 of the molar value.

For `Cc1ccc2c(c1)sc(-c1ccc(N(C)C)cc1)[n+]2C` [Thioflavin T, reference compound], the pIC50 was below 6.00.
